Measurements as given in paper PMC5766103 (PLoS ONE, 2018).

Chains of the proteins cited; added tags and fusions are not shown. Residues count along the entry.
UniProt Q16552, 24-155: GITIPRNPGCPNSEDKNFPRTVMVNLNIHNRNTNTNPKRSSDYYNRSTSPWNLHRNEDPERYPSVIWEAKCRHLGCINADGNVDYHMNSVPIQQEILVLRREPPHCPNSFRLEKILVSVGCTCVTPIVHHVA

Assays:
human IL-17A = assay: Cell-based neutralization assay: IL-17A-induced CXCL1/GROα in HT-29 cells; settings: highest concentration tested (dose range 0.05 nM to 50,000 nM), ~48 h
IL-17A = target: T1, IL-17A (Homo sapiens, UniProt Q16552); assay: Surface plasmon resonance (BIAcore T200) binding of peptides to captured Avi-tagged IL-17A; settings: 8°C, 50 μl/min, 10 mM HEPES pH 7.5, 150 mM NaCl, 0.005% P20, 3% DMSO; global fit, 1:1 binding model
T1 construct: His-tag; Flag-tag; made in house; host or cells: Sf9 insect cells (baculovirus)

IL-17RA:IL-17A = assay: ELISA-based binding assay IL-17RA:IL-17A; assay type: biochemical, human; settings: dose range 0.128 nM to 10,000 nM
[1] = target: Avi-tagged IL-17A (IL-17A molecule with a single biotin tag per dimer) (human) (UniProt Q16552); assay: AlphaScreen or HTRF; AlphaLISA competition: 2 nM IL-17RA-flag and 2 nM Avi-tagged IL-17A-His with peptide dilutions, 2 h at room temperature; streptavidin donor and anti-FLAG acceptor beads; 20 mM HEPES, 150 mM NaCl, 0.05% Tween-20, 0.1% HSA, pH 7, 1% DMSO; relative IC50, four parameter fit
[2] = target: human IL-17A (#317-ILB; R&D Systems) (human, UniProt Q16552 24-155, biotin (EZ Link NHS-Biotin), in the ELISA); assay: cell-based or functional assay
[3] = target: Avi-tagged IL-17A (IL-17A molecule with a single biotin tag per dimer) (human) (UniProt Q16552); assay: SPR; Avi-tagged IL-17A (6000–9000 RU) captured on a streptavidin chip; peptides flowed at 50 μl/min; 8°C; 10 mM HEPES pH 7.5, 150 mM NaCl, 0.005% P20, 3% DMSO; global fit, 1:1 binding model

Molecule	SPR ka1 (IL-17A) [M⁻¹ s⁻¹]	SPR kd1 (IL-17A) [s⁻¹]	IC50 [1] [nM]	Kd [3] [nM]	further results
CSCC[C@@H]1NC(=O)[C@H](CC(=O)O)NC(=O)[C@H](Cc2ccc(O)cc2)NC(=O)[C@H](CCC(=O)O)NC(=O)[C@H](CC(C)C)NC(=O)[C@H](CCCNC(=N)N)NC(=O)[C@@H]2CCCN2C(=O)[C@@H](NC(=O)[C@H](CCC(=O)O)NC(=O)[C@H](Cc2ccc(O)cc2)NC(=O)[C@H](C)N)CSSC[C@@H](C(=O)N[C@@H](CC(C)C)C(=O)N2CCC[C@H]2C(=O)N[C@@H](CO)C(=O)O)NC(=O)[C@H](Cc2c[nH]cn2)NC(=O)[C@H](CC(C)C)NC(=O)[C@H](C)NC(=O)CNC(=O)[C@H](Cc2ccccc2)NC1=O [18–1]					inhibition of human IL-17A-induced CXCL1 expression (in words) (human IL-17A): minimal inhibition
CC[C@H](C)[C@H](NC(=O)[C@@H]1CSSC[C@H](N)C(=O)N[C@@H](Cc2ccccc2)C(=O)N[C@@H](CC(=O)O)C(=O)N[C@@H](CC(C)C)C(=O)N[C@@H](CCC(N)=O)C(=O)N[C@@H](Cc2ccc(O)cc2)C(=O)N[C@@H](CC(=O)O)C(=O)N2CCC[C@H]2C(=O)N[C@@H](Cc2c[nH]c3ccccc23)C(=O)NCC(=O)N[C@@H](C)C(=O)N[C@@H](CC(C)C)C(=O)N[C@@H](Cc2c[nH]cn2)C(=O)N1)C(=O)O [18–903]	7570	0.0183			
CC[C@H](C)[C@H](NC(=O)[C@@H]1CSSC[C@H](N)C(=O)N[C@@H](CC(C)C)C(=O)N[C@@H](CC(=O)O)C(=O)N[C@@H](CC(C)C)C(=O)N[C@@H](CCC(N)=O)C(=O)N[C@@H](Cc2ccc(O)cc2)C(=O)N[C@@H](CC(=O)O)C(=O)N2CCC[C@H]2C(=O)N[C@@H](Cc2c[nH]c3ccccc23)C(=O)NCC(=O)N[C@@H](C)C(=O)N[C@@H](CC(C)C)C(=O)N[C@@H](Cc2c[nH]cn2)C(=O)N1)C(=O)O [18–906]	6250	0.016			
CC[C@H](C)[C@H](NC(=O)[C@@H]1CSSC[C@H](N)C(=O)N[C@@H](CC(C)C)C(=O)N[C@@H](CC(=O)O)C(=O)N[C@@H](CC(C)C)C(=O)N[C@@H](C(C)C)C(=O)N[C@@H](Cc2ccc(O)cc2)C(=O)N[C@@H](CC(=O)O)C(=O)N2CCC[C@H]2C(=O)N[C@@H](Cc2c[nH]c3ccccc23)C(=O)NCC(=O)N[C@@H](C)C(=O)N[C@@H](CC(C)C)C(=O)N[C@@H](Cc2c[nH]cn2)C(=O)N1)C(=O)O [18–921]	5510	0.0223			
CSCC[C@@H]1NC(=O)[C@H](CC(=O)O)NC(=O)[C@H](Cc2ccc(O)cc2)NC(=O)[C@H](CCC(=O)O)NC(=O)[C@H](CC(C)C)NC(=O)[C@H](CCCNC(=N)N)NC(=O)[C@@H]2CCCN2C(=O)[C@@H](N)CSSC[C@@H](C(=O)N[C@@H](CC(C)C)C(=O)O)NC(=O)[C@H](Cc2c[nH]cn2)NC(=O)[C@H](CC(C)C)NC(=O)[C@H](C)NC(=O)CNC(=O)[C@H](Cc2ccccc2)NC1=O [18–927]	7040	0.0286			inhibition of human IL-17A binding to IL-17RA (in words) (IL-17RA:IL-17A): no inhibition
CSCC[C@@H]1NC(=O)[C@H](CC(=O)O)NC(=O)[C@H](Cc2ccc(O)cc2)NC(=O)[C@H](CCC(=O)O)NC(=O)[C@H](CC(C)C)NC(=O)[C@H](C)NC(=O)[C@H](Cc2c[nH]c3ccccc23)NC(=O)[C@@H](N)CSSC[C@@H](C(=O)N[C@@H](CCCNC(=N)N)C(=O)O)NC(=O)[C@H](Cc2c[nH]cn2)NC(=O)[C@H](CC(C)C)NC(=O)[C@H](Cc2ccc(O)cc2)NC(=O)CNC(=O)[C@H](Cc2ccccc2)NC1=O [18–964]	31700	0.00922			
CSCC[C@@H]1NC(=O)[C@H](CC(=O)O)NC(=O)[C@H](Cc2ccc(O)cc2)NC(=O)[C@H](CCC(=O)O)NC(=O)[C@H](CC(C)C)NC(=O)[C@H](C(C)C)NC(=O)[C@H](Cc2c[nH]c3ccccc23)NC(=O)[C@@H](N)CSSC[C@@H](C(=O)N[C@@H](CCCNC(=N)N)C(=O)O)NC(=O)[C@H](Cc2c[nH]cn2)NC(=O)[C@H](CC(C)C)NC(=O)[C@H](Cc2ccccc2)NC(=O)CNC(=O)[C@H](Cc2ccccc2)NC1=O [18–972]	63100	0.00457			
CSCC[C@H](NC(=O)[C@H](CC(=O)O)NC(=O)[C@H](C)NC(=O)[C@H](CC(=O)O)NC(=O)[C@H](C)N)C(=O)N[C@H]1CSSC[C@@H](C(=O)N[C@@H](Cc2c[nH]cn2)C(=O)O)NC(=O)[C@H](Cc2c[nH]c3ccccc23)NC(=O)[C@@H]2CCCN2C(=O)[C@H](CO)NC(=O)[C@H]([C@@H](C)O)NC(=O)[C@@H]2CCCN2C(=O)[C@H](Cc2ccccc2)NC(=O)[C@H](Cc2ccccc2)NC(=O)[C@H](Cc2c[nH]c3ccccc23)NC1=O [585–865]	134000	0.1227			
CC[C@H](C)[C@H](NC(=O)[C@@H](N)CC(=O)O)C(=O)N[C@@H](CO)C(=O)N[C@@H](C)C(=O)N[C@H](C(=O)N[C@H]1CSSC[C@@H](C(=O)N[C@@H](Cc2c[nH]cn2)C(=O)O)NC(=O)[C@H](CCC(=O)O)NC(=O)[C@@H]2CCCN2C(=O)[C@H](CC(=O)O)NC(=O)[C@H](Cc2ccccc2)NC(=O)[C@@H]2CCCN2C(=O)[C@H](Cc2ccccc2)NC(=O)[C@H](C)NC(=O)[C@H](Cc2c[nH]c3ccccc23)NC1=O)C(C)C [585–869]	64500	0.016			
CC(C)C[C@@H]1NC(=O)[C@H](Cc2ccc(O)cc2)NC(=O)[C@@H]2CCCN2C(=O)[C@H](Cc2ccccc2)NC(=O)[C@H](C)NC(=O)[C@H](Cc2c[nH]c3ccccc23)NC(=O)[C@@H](NC(=O)[C@@H](NC(=O)[C@H](C)NC(=O)[C@H](CO)NC(=O)[C@H](CO)NC(=O)[C@@H](N)CC(=O)O)C(C)C)CSSC[C@@H](C(=O)N[C@@H](Cc2c[nH]cn2)C(=O)O)NC(=O)[C@H](CCC(=O)O)NC(=O)[C@@H]2CCCN2C1=O [585–876]	93300	0.0162			
DLSAVCWAFPWDPECH [585–870]			16		inhibition of human IL-17A-induced CXCL1 (GROα) production by HT-29 cells (IL-17A with its receptor on the cells); percent inhibition at 10 μM peptide [2]: 76.6%
CLDLVYDPWGALHCI [18–921]			3100	4040	
DSSAVCWAFPYLPECH [585–876]			48	170	
CWVLEYDMFGFLHCR [18–972]				72	
DISAVCWAFPFDPECH [585–869]			39	250	
ADADMCWFFPTSPWCH [585–865]			670	920	
CLDLQYDPWGALHCI [18–906]				2560	
DSSAVCWAFPHHPLCHMKAT [585–1]			4980		inhibition of human IL-17A-induced CXCL1 (GROα) production by HT-29 cells (IL-17A with its receptor on the cells); percent inhibition at 10 μM peptide [2]: 42.5%
CWVLEYDMFGALHCR (disulfide bond between Cys1 and Cys14) [18–902]					inhibition of human IL-17A-induced CXCL1 (GROα) production by HT-29 cells (IL-17A with its receptor on the cells); percent inhibition at 10 μM peptide [2]: 38.4%
CPRLEYDMFGALHCL [18–927]			5300	4060	
CFDLQYDPWGALHCI [18–903]			1500	2410	
CWALEYDMFGYLHCR [18–964]			720	290	
